Laboratory results taken from PubChem BioAssay AID493222 (Johns Hopkins Ion Channel Center, 2011).
The entries are a selection whose mix differs from that of the whole data set. The source made the active and inactive calls.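 The calls were made as follows: active = mean of duplicate membrane potential ratios lying over 3 SD above or below the buffer control mean, so actives fall on both sides; inactive = the rest.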

Experiment: membrane potential effects in parental HEK293, counter-screen for CHT inhibitor project, cell-based, membrane potential dye (AID 493222);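 also: parental cells lack the transporter so any hit is non-specific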
Settings: choline response, at 10 µM

Question: Which outcome does the source give for `O=[N+]([O-])c1cc([N+](=O)[O-])c(Nc2ccccn2)c([N+](=O)[O-])c1` here?
Answer: Its outcome is “inactive”.

Question: Which outcome does the source give for `CC1=NCCc2c1[nH]c1ccccc21.O=[N+]([O-])c1cc([N+](=O)[O-])c(O)c([N+](=O)[O-])c1` here?
Answer: Its outcome is “inactive”.
